The values that follow come from patent publication US20250353827A1, “INDOLINE DERIVATIVES AS SEROTONERGIC AGENTS USEFUL FOR THE TREATMENT OF DISORDERS RELATED THERETO” (MINDSET PHARMA INC., priority 2022, published 2025).

Sequences of proteins named here, by UniProt entry; tags and fusion partners are left off.
UniProt P28223, whole entry: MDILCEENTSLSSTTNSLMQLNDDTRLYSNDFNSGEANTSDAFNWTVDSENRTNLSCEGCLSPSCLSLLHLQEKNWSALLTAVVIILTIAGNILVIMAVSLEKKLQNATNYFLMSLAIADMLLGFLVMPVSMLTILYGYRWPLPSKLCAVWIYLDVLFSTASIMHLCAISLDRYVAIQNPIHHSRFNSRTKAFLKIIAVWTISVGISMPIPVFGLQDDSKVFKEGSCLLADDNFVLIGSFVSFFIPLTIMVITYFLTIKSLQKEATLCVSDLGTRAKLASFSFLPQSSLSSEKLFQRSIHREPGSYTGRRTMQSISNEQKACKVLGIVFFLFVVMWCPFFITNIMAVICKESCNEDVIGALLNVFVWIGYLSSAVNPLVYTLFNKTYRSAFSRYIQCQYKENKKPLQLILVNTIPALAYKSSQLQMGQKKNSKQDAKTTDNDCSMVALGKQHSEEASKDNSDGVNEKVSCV

In series [1] the target is T1, human 5-HT2A (h5-HT2A) receptor (Homo sapiens, UniProt P28223).
T1 construct: expressed in transfected cells; cultured under G418 and hygromycin B selection
The experiment in a line: FLIPR assay, human 5-HT2A receptor under agonist mode. Type of series: cell-based. The settings on record: 5-HT2A (FLIPR), RFU=Fmax−Fmin. As to the method:
I. Assessment of the Effect of Exemplary Compounds of Formula I Targeting on Human 5-HT2A (h5-HT2A) Receptor Under Agonist Mode
• 1. Cells were cultured in cell culture medium (DMEM containing 10% FBS, 1×penicillin-streptomycin 300 μg/ml G418 and 100 μg/ml hygromycin B) at 37° C., 5% (v/v) CO2. • 2. One day before the assays, the cells were detached using TrypLE™ Express and cells were counted using cell counter. Only cells with >85% viability were used for the assay. • 3. 20000 cells/well were seeded in 30 μl/well culture medium to a 384-well cell plate and cells were incubated overnight at 37° C., 5% (v/v) CO2. • 4. On the assay day, 2×dye solution was prepared following the manual of the FLIPR® Calcium 6 Assay Kit: i. The dye was diluted with assay buffer (20 mM HEPES in 1× HBSS, PH7.4); ii. Probenecid was added to the final concentration of 5 mM; iii. Vortex vigorously for 1-2 minutes. • 5. Medium was removed from cell plate by flicking the cell plate on towel papers. • 6. […]
• i. The normalized fluorescence reading (RFU) was calculated as shown below, where Fmax and Fmin stand for maximum and minimum of calcium signal during defined time window: RFU=Fmax−Fmin. • ii. […]
Exemplary compounds of Formula I were evaluated functionally using FLIPR assay for their effect on h5-HT2A receptor under agonist mode.

A short description of series [2]: Liver microsomes stability, rat.
Series [3] in a line: Liver microsomes stability, human. Here is the method: The objective of this study was to estimate in vitro metabolic stability of representative compounds of the application in pooled human and male mouse liver microsomes. The concentrations of parent compounds in reaction systems were evaluated by LC-MS/MS for estimating the stability in pooled human and male mouse liver microsomes. The in vitro intrinsic clearances of test compounds were determined as well.
A master solution in the “Incubation Plate” containing phosphate buffer, ultra-pure H2O, MgCl2 solution and liver microsomes was made according to Table 3. The mixture was pre-warmed at 37° C. water bath for 5 minutes.
40 μL of 10 mM NADPH solution was added to each well. The final concentration of NADPH was 1 mM. The negative control samples were prepared by replacing NADPH with 40 μL of ultra-pure H2O. Samples were prepared in duplicate. Negative controls were prepared in singlet.
The reaction was started with the addition of 4 μL of 200 μM test compounds or control compounds to each master solution to get the final concentration of 2 μM. […]
All calculations were carried out using Microsoft Excel. Peak areas were determined from extracted ion chromatograms. The slope value, k, was determined by linear regression of the natural logarithm of the remaining percentage of the parent drug vs. incubation time curve.
The in vitro half-life (in vitro t1/2) was determined from the slope value: […]

For `COc1ccc2[nH]cc(CCN(C)C)c2c1` [Compound 5-MeO-DMT, 5-MeO-DMT, reference compound], the “RFU@10 μM” value in series [1] stood at 2081.
As for `O=C(O)Cc1ccccc1Nc1c(Cl)cccc1Cl` [Diclofenac], the “Scaled-up CLint” value in series [2] is 169.89 mL/min/kg; in series [3], 167.98 mL/min/kg.
